In paper PMC7615677, “DNDI-6174, a preclinical candidate for visceral leishmaniasis that targets the cytochrome bc1 complex” (Science translational medicine, 2023):

Experiments:
[1] = system: L. infantum MHOM/MA67/ITMAP263; assay: Acute mouse infection model (VL); format: in vivo, BALB/c mice; settings: 6.25 mg/kg bid, 5-day dosing
Protocol: (§1) Female 8−10-week-old BALB/c mice were infected with 2 x 10^7 L. donovani MHOM/ET/67/L82 (synonym HU3) or L. infantum MHOM/MA67/ITMAP263 amastigotes on day 0 and dispatched in groups of five individuals. […] Five days following end of treatment, all mice were sacrificed, and parasite burden was determined from smears of liver sections. Efficacy was expressed as the mean percentage load reduction compared to untreated (vehicle-only) control animals. Reference drugs miltefosine and/or AmBisome were used as positive controls and comparators.

[2] = system: L. donovani MHOM/ET/67/L82 (synonym HU3); assay: Acute mouse infection model (VL); format: in vivo, BALB/c mice; settings: 6.25 mg/kg bid, 5-day dosing
Protocol: as §1

L. infantum = assay: Promastigote back-transformation assay on organs of treated hamsters; format: in vivo, golden hamsters; parameters: key: an arbitrary parasite score attributed (+, ++ or +++) based on visual inspection of parasite density in the positive wells; an arbitrary parasite score attributed (+, ++ or +++) based on visual inspection of parasite density in the positive wells; an arbitrary parasite score attributed (+, ++ or +++) based on visual inspection of parasite density in the positive wells; A score of “-“is attributed in the absence of parasite; settings: 5 days
Source text: Female golden hamsters (5 per treatment group) were infected through intracardiac administration of 2x10^7 L. infantum amastigotes obtained from the spleen of a heavily infected donor hamster. DNDI-6174, miltefosine as reference control or vehicle were orally administrated from day 21 post-infection. After 5-day treatment period, followed by a 10-day wash out period, animals were sacrificed, and parasites burden assessed in the three target organs (liver, spleen, and bone-marrow). For this assessment, organs of individual animals were weighed, except for bone-marrow thus only providing a semi-quantitative evaluation only. Impression smears were Giemsa-stained for microscopic evaluation of amastigote burden, expressed as LDU (= mean number of amastigotes/cell × organ weight in mg) and the results were expressed as a percentage reduction compared to the burdens in the control group (vehicle as placebo). For evaluating the presence of viable residual burden after treatment, a promastigote back-transformation assay was conducted. This consisted of the incubation at ambient temperature of aseptically collected pieces of spleen or liver tissue in 1 mL of promastigote back-transformation medium in 24-well plates. For the bone-marrow, resected femurs were flushed with 1 mL medium. The medium consists of HOMEM pH 6.0 prepared as described elsewhere ([5]) with 10% fetal bovine serum (Gibco), 2.5% penicillin/streptomycin and 1% gentamicin (Merck). A qualitative assessment of the presence of promastigotes was made after 3 and 5 days of incubation and a score was attributed (+, ++ or +++) based on parasite density in the positive wells.
Supplementary Materials and methods
Promastigote transformation assay
For evaluating the presence of viable residual burdens after treatment, a promastigote back-transformation assay is conducted. This test consists of the incubation at ambient temperature of aseptically collected pieces of spleen or liver tissue in 1 mL of promastigote back-transformation medium in 24-well plates. For the bone-marrow, resected femurs are flushed with 1 mL medium. The medium consists of HOMEM pH 6.0 prepared as described elsewhere (1) with 10% fetal bovine serum (Gibco) and 2.5% penicillin/streptomycin and 1% gentamicin (Merck). A qualitative assessment of the presence of promastigotes is made after 3 and 5 days of incubation and a score is attributed (+, ++ or +++) based on parasite density in the positive […]
Supplementary Information on Tables
L. infantum MHOM/FR/96/LEM3323 Cl4 was originally obtained from a French HIV-positive patient (Languedoc area in Southern France) and provided by Dr. Laurence Lachaud of the Centre National de Référence des Leishmanioses (CNRL), Montpellier, France. The miltefosine and paromomycin resistant lines (LEM3323 Cl4 MIL-R and PMM-R) were obtained by successive in vitro selection cycles on intracellular amastigotes (2, 3)

In vivo pharmacokinetics = settings: female, golden Syrian, hamster, plasma, hamsters, oral 6.25 mg/kg qd
Protocol: Additional PK studies were also conducted by WuXi AppTec Co, Ltd (Shanghai, China) according to protocols reviewed and approved by DNDi. Studies were conducted in male Sprague Dawley rats (IV dose of 3 mg/kg and single oral doses of 10, 50, 100 and 300 mg/kg), female BALB/c mice (twice daily (at 6 and 24 h) oral doses of 3.13, 6.25 and 12.5 mg/kg for 5 days), golden Syrian hamsters (single oral dose of 50 mg/kg and once daily oral doses of 6.25, 12.5 and 25 mg/kg for 5 days) and in beagle dogs (IV dose of 1 mg/kg and single oral doses of 5 and 30 mg/kg). IV and oral formulations for rats, mice and hamsters were the same as described above. For dogs, the IV dose was administered in saline containing 2% DMSO and 3% Solutol HS-15 and the oral formulation was as described above. Blood was sampled up to 48 h post-dose into vials containing potassium EDTA as an anticoagulant, proteins were precipitated with acetonitrile and plasma was separated and assayed by LC-MS.
Single dose pharmacokinetic parameters (clearance, volume of distribution and half-life) were initially estimated using non-compartmental methods and oral bioavailability was calculated using the ratio of the dose corrected AUC after oral dosing relative to that after IV administration. Nominal doses were used in the calculations unless the measured dose differed by more than 15% from the nominal dose, in which case the measured dose was used. Where a full concentration versus time profile was obtained from a single animal, parameters were estimated for each animal and mean and standard deviations calculated. In the case of mice where sparse sampling was used with multiple animals per time point, the data analysis was conducted using the mean profile.

[3] = 6.25 mg/kg bid, individual animals 1-4
[4] = 6.25 mg/kg qd, individual animals 1-5

Cc1[nH]c2nc(N)nc(C)c2c1-c1ccc(C#N)c2c1OCO2 [DNDI-6174]
efficacy (>95% reduction in liver parasite burden), in words [1]: not sufficient | efficacy (>95% reduction in liver parasite burden), in words [2]: not sufficient | parasite score, Bone-marrow (L. infantum; [3]): ++ (2×) and - (2×) | parasite score, Liver (L. infantum; [3]): + (2×) and - (2×) | parasite score, Spleen (L. infantum; [3]): ++ (2×) and - (2×) | parasite score, Bone-marrow (L. infantum; [4]): ++ | parasite score, Liver (L. infantum; [4]): + (4×) and ++ | parasite score, Spleen (L. infantum; [4]): ++ (4×) and + | Cmax at 5 days (In vivo pharmacokinetics): 1430 ng/mL | AUC(0-t) (In vivo pharmacokinetics; 5 days, read-out: AUC0-24 (first dose)): 3580 ng·h/mL | AUC (In vivo pharmacokinetics; 5 days, read-out: AUC96-120 (last dose)): 9230 ng·h/mL | Cmax (In vivo pharmacokinetics; 5 days, read-out: Cmax (Day 1)): 661 ng/mL

Values joined by “and” are separate entries in the source; they are usually repeats but may differ in a detail not shown here. Equal values may be shown once.
